Curated experimental data: vapor pressure values

Source: data files of OPERA 2.9 (Mansouri et al.), github.com/kmansouri/OPERA.

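OPERA's authors assembled the values from existing databases and did not measure them anew. A listed value is a point estimate from one report or more. Conditions of the individual experiments are not part of the data. A value may pool stereoisomers or salt forms, and the file does not say which form was measured. Unmarked limits or estimates from the upstream databases cannot be ruled out.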

Vapor pressures (log10 mmHg) refer to near room temperature, 15 to 30 °C; higher is more volatile. The databases behind each value are named after "via".

The entry for CCCCCCCCCCCC(=O)OCC(C)(C)C=NCC1(C)CC(N=CC(C)(C)COC(=O)CCCCCCCCCCC)CC(C)(C)C1 (stereo not given) lists vapor pressure -5.058 (log10 mmHg) (via eChemPortal).
The entry for CCCCCCC(Cl)CCCC (stereo not given) lists vapor pressure -1.514 (log10 mmHg) (via OCHEM).
The entry for C1CCOCOC1 lists vapor pressure 1.352 (log10 mmHg) (via eChemPortal).
The entry for C=C(C)C(=O)OCCC[Si](O[Si](C)(C)C)(O[Si](C)(C)C)O[Si](C)(C)C lists vapor pressure -3.215 (log10 mmHg) (via eChemPortal).
The entry for COc1cccc2c1C(=O)c1c(O)c3c(c(O)c1C2=O)C[C@@](O)(C(C)=O)C[C@@H]3O[C@H]1C[C@H](N)[C@H](O)[C@H](C)O1 lists vapor pressure -14.03 (log10 mmHg) (via PubChem).
The entry for CCC[C@H]1CC[C@H](c2cccc(F)c2)CC1 lists vapor pressure -3.854 (log10 mmHg) (via eChemPortal).
The entry for CC1(C)C2CC=C(CCC=O)C1C2 (stereo not given) lists vapor pressure -1.481 (log10 mmHg) (via eChemPortal).
The entry for CC1(C)C=C(C2(C)OCC(C)(C)CO2)CCC1 lists vapor pressure -1.647 (log10 mmHg) (via eChemPortal).
The entry for CN(C)CCN1CCN(C)CC1 lists vapor pressure -0.669 (log10 mmHg) (via eChemPortal).
The entry for O=C1c2ccccc2-c2ccccc21 lists vapor pressure -4.314 (log10 mmHg) (via eChemPortal).
The entry for COC1=CCC2=C(CCC3C2CCC2(C)C3CCC2(O)C#N)C1 (stereo not given) lists vapor pressure -8.097 (log10 mmHg) (via eChemPortal).
The entry for Clc1cc(-c2c(Cl)c(Cl)cc(Cl)c2Cl)c(Cl)c(Cl)c1Cl lists vapor pressure -5.614 (log10 mmHg) (via OCHEM).
The entry for c1ccc2[nH]nnc2c1 lists vapor pressure -1.398 (log10 mmHg) (via OCHEM).
The entry for CC(C)(C1CCCO1)C1CCCO1 (stereo not given) lists vapor pressure -1.536 (log10 mmHg) (via eChemPortal).
The entry for C=C(C)C(=O)O[C@H]1C[C@@H]2CC[C@@]1(C)C2(C)C lists vapor pressure -1.148 (log10 mmHg) (via eChemPortal).
The entry for CC(CCC(=O)O)C(=O)O (stereo not given) lists vapor pressure -5.214 (log10 mmHg) (via eChemPortal).
The entry for COC(C)CCOC(C)=O (stereo not given) lists vapor pressure -0.477 (log10 mmHg) (via eChemPortal).
The entry for O=C(c1ccccc1)c1ccc(OCC(O)COc2ccc(C(=O)c3ccccc3)c(O)c2)cc1O lists vapor pressure -5.678 (log10 mmHg) (via eChemPortal).
The entry for O=S(=O)(O)CCC(F)(F)C(F)(F)C(F)(F)C(F)(F)C(F)(F)C(F)(F)F lists vapor pressure -1.833 (log10 mmHg) (via eChemPortal).
The entry for CCCCC(CC)COCC1CO1 (stereo not given) lists vapor pressure -0.663 (log10 mmHg) (via eChemPortal).
The entry for CCC[C@@H]1CC[C@@H](c2ccc(-c3cc(F)c(C(F)(F)Oc4cc(F)c(F)c(F)c4)c(F)c3)cc2)OC1 (relative stereo) lists vapor pressure -9.21 (log10 mmHg) (via eChemPortal).
The entry for C/C=C(\C)C(=O)OCCC(C)CCC=C(C)C (stereo partly drawn) lists vapor pressure -2.075 (log10 mmHg) (via eChemPortal).
The entry for Clc1ccc2ncoc2c1 lists vapor pressure -0.824 (log10 mmHg) (via eChemPortal).
The entry for CN(C)c1ccc(C(c2ccc(N(C)C)cc2)c2ccc(N(C)C)cc2)cc1 lists vapor pressure -6.87 (log10 mmHg) (via eChemPortal).
The entry for CCCCCCCC/C=C\CCCCCCCC(=O)NCCCCCCCC/C=C/CCCCCCCC lists vapor pressure -6.206 (log10 mmHg) (via eChemPortal).
The entry for CC(C)=NO lists vapor pressure 0.259 (log10 mmHg) (via PubChem, eChemPortal).
The entry for FC(F)(F)OC(F)(F)OC(F)(Cl)C(F)(F)Cl (stereo not given) lists vapor pressure 2.063 (log10 mmHg) (via eChemPortal).
The entry for CCOc1ccccc1O lists vapor pressure -1.042 (log10 mmHg) (via eChemPortal).
The entry for C=C[Si](C)(C)C lists vapor pressure 2.398 (log10 mmHg) (via eChemPortal).
The entry for CCn1cc[n+](C)c1.F[B-](F)(F)F lists vapor pressure -7.637 (log10 mmHg) (via eChemPortal).
The entry for O=C=NS(=O)(=O)c1ccccc1C(F)(F)F lists vapor pressure -1.423 (log10 mmHg) (via eChemPortal).
The entry for CC(C)C(=O)OCCc1ccccc1 lists vapor pressure -1.079 (log10 mmHg) (via eChemPortal).
The entry for CCOCC(C)OCC (stereo not given) lists vapor pressure 1.157 (log10 mmHg) (via eChemPortal).
The entry for C=CNC=O lists vapor pressure -0.803 (log10 mmHg) (via eChemPortal).
The entry for Clc1cc(Cl)c(Cl)c(-c2c(Cl)c(Cl)c(Cl)c(Cl)c2Cl)c1Cl lists vapor pressure -6.035 (log10 mmHg) (via OCHEM).
The entry for CCCCNCC lists vapor pressure 1.407 (log10 mmHg) (via eChemPortal).
The entry for Clc1cc(Cl)c(Cl)c(-c2cc(Cl)c(Cl)c(Cl)c2Cl)c1 lists vapor pressure -5.385 (log10 mmHg) (via OCHEM).
The entry for Cc1oncc1C(=O)O lists vapor pressure -5.921 (log10 mmHg) (via eChemPortal).
The entry for Clc1cccc(Cl)c1-c1ccccc1 lists vapor pressure -2.585 (log10 mmHg) (via OCHEM).
The entry for CCCCCC(=Cc1ccccc1)C(OCC)OCC lists vapor pressure -4.134 (log10 mmHg) (via eChemPortal).

6 of these entries, quoted again:

compound	vapor pressure (log10 mmHg)	via
CCCCCCCCCCCC(=O)OCC(C)(C)C=NCC1(C)CC(N=CC(C)(C)COC(=O)CCCCCCCCCCC)CC(C)(C)C1 (stereo not given)	-5.058	eChemPortal
C=C(C)C(=O)OCCC[Si](O[Si](C)(C)C)(O[Si](C)(C)C)O[Si](C)(C)C	-3.215	eChemPortal
CC(CCC(=O)O)C(=O)O (stereo not given)	-5.214	eChemPortal
C1CCOCOC1	1.352	eChemPortal
CCCCCCC(Cl)CCCC (stereo not given)	-1.514	OCHEM
Cc1oncc1C(=O)O	-5.921	eChemPortal